Source: US12139488B2, “Pyrido[3,2-d]pyrimidine compounds uses thereof for treating a proliferative disease” (Universite de Montreal, priority 2021, dated 2024)
Read-outs that look alike come from different tables or passages of the source.

Amino acid sequences for entries named in this document (tags omitted).
UniProt P04049, whole entry: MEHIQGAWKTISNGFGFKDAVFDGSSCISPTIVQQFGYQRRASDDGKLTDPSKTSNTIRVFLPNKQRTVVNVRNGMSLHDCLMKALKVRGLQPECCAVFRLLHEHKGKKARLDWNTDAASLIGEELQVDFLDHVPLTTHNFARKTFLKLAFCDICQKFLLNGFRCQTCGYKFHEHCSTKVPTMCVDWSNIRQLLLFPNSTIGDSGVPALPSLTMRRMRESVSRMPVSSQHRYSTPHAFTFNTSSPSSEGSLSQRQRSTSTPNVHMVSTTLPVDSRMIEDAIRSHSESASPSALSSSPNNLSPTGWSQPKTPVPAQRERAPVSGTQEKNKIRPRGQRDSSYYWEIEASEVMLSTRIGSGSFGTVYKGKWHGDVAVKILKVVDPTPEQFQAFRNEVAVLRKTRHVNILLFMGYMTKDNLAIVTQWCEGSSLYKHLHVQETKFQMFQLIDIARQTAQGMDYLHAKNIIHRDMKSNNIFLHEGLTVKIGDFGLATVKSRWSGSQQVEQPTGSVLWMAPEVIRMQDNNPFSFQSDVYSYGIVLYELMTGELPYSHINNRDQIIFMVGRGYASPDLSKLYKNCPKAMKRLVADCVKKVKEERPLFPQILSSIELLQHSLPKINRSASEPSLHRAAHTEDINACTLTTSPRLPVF
UniProt P15056, whole entry: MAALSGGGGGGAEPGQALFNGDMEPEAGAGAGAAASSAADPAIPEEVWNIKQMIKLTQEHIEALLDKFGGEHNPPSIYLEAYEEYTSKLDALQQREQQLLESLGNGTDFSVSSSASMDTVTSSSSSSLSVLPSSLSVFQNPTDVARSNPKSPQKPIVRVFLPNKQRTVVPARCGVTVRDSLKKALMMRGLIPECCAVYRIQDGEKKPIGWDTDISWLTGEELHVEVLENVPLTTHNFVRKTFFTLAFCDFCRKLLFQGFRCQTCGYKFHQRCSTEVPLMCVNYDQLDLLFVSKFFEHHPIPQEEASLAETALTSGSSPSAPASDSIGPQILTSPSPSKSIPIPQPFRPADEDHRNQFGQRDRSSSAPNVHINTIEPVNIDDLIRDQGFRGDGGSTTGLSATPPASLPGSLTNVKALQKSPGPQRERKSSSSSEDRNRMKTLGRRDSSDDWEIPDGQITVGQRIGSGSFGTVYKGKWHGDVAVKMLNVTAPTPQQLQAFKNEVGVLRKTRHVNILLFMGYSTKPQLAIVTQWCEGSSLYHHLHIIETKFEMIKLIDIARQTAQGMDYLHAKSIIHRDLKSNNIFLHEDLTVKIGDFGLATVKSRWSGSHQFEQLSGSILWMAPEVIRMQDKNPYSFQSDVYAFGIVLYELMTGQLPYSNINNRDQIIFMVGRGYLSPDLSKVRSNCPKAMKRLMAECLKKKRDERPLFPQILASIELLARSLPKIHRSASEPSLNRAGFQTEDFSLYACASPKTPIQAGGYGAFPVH

How the values were obtained:
[1] = target: CRAF (Homo sapiens, UniProt P04049); assay: CRAF kinase activity assay (ADP-Glo)
[2] = system: pERK in HCT-116 cells (KRAS G13D); assay: Phospho-ERK inhibition (AlphaLISA SureFire Ultra p-ERK 1/2), HCT116; conditions: for IC50: read-out: HCT116 pERK IC50; for HCT116 pERK % Ymin (lowest value of the IC50 curve): Ymin above −20% = minimal or no paradoxical activation
Summary of the method: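 p-ERK1/2 (Thr202/Tyr204) in lysates measured by AlphaLISA after 1 h compound exposure of overnight-plated cells (RPMI-1640, 5% FBS, 0.5% DMSO, ten concentrations, usually from 10 μM). Background from a trametinib control subtracted, inhibition normalised to vehicle, and IC50 fitted with a variable-slope four-parameter model.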

[3] = target: BRAF (Homo sapiens (Human), UniProt P15056); assay: BRAF kinase activity assay (ADP-Glo)
[4] = read-out: Kinase IC50 (nM) CRAF
[5] = HCT116 cells, class symbol before the bracket
[6] = read-out: Kinase IC50 (nM) BRAF
[7] = read-out: Kinase IC50 (nM) CRAF, tested form: formic acid salt
[8] = HCT116 cells, Ymin in brackets, tested form: formic acid salt
[9] = HCT116 cells, class symbol before the bracket, tested form: formic acid salt
[10] = read-out: Kinase IC50 (nM) BRAF, tested form: formic acid salt
[11] = read-out: Kinase IC50 (nM), CRAF biochemical kinase assay, CRAF
[12] = read-out: Kinase IC50 (nM), BRAF biochemical kinase assay, BRAF

| IC50 [1, 4] [nM] | IC50 [2, 5] [nM] | IC50 [3, 6] [nM] | IC50 [1, 11] [nM] | HCT116 pERK % Ymin (lowest value of the IC50 curve) ([2]; HCT116 cells) [%] | IC50 ([2]; HCT116 cells) [nM] | IC50 [3, 12] [nM] | SMILES | HCT116 pERK Ymin % ([2]; HCT116 cells, Ymin in brackets) [%] | further results |
| --- | --- | --- | --- | --- | --- | --- | --- | --- | --- |
| > 50 | 1000 to 10000 | 1 to 10 |  |  |  |  | O=S(=O)(Nc1ccc(F)c(Nc2ncnc3ccc(-n4cnc5c(CN6CCO[C@@H](CO)C6)cccc54)nc23)c1F)c1ccccc1Cl | 0 |  |
|  |  |  |  |  |  |  | Cc1c(Cl)cccc1S(=O)(=O)Nc1ccc(F)c(Nc2ncnc3ccc(-n4nc(C(=O)N5C[C@@H](C)NC[C@@H]5C)c5ccccc54)nc23)c1F |  | IC50 [1, 7]: 10 to 50 nM; HCT116 pERK Ymin % [2, 8]: −7.4%; IC50 [2, 9]: 500 to 1000 nM; IC50 [3, 10]: < 1 nM |
|  |  |  | < 10 | −15 | < 500 | < 1 | O=S(=O)(Nc1ccc(F)c(Nc2ncnc3ccc(-c4cncs4)nc23)c1F)c1cccc(Cl)c1Cl |  |  |
|  |  |  | < 10 | 0.7 | < 500 | < 1 | O=S(=O)(Nc1ccc(F)c(Nc2ncnc3ccc(-n4cnc5c(N6CCC(O)(CO)CC6)cccc54)nc23)c1F)c1cccc(Cl)c1Cl |  |  |
| > 50 | < 500 | 1 to 10 |  |  |  |  | Cc1c(F)cccc1S(=O)(=O)Nc1ccc(F)c(Nc2ncnc3ccc(-n4nc(C(=O)NCc5cccnc5)c5ccccc54)nc23)c1F | −21 |  |
| 10 to 50 | < 500 | < 1 |  |  |  |  | Cc1c(F)cccc1S(=O)(=O)Nc1ccc(F)c(Nc2ncnc3ccc(-n4nc(C(=O)NCC5(O)COC5)c5ccccc54)nc23)c1F | −10.9 |  |
|  |  |  |  |  |  |  | Cc1c(Cl)cccc1S(=O)(=O)Nc1ccc(F)c(Nc2ncnc3ccc(-n4nc(C(=O)N5CCN(C)CC5)c5ccccc54)nc23)c1F |  | IC50 ([1]; read-out: Kinase IC50 (nM) CRAF, tested form: formate): 10 to 50 nM; HCT116 pERK Ymin % ([2]; HCT116 cells, Ymin in brackets, tested form: formate): −3.5%; IC50 ([2]; HCT116 cells, class symbol before the bracket, tested form: formate): < 500 nM; IC50 ([3]; read-out: Kinase IC50 (nM) BRAF, tested form: formate): < 1 nM |
|  |  |  |  |  |  |  | CN1CCN(S(=O)(=O)c2cn(-c3ccc4ncnc(Nc5c(F)ccc(NS(=O)(=O)c6cccc(Cl)c6Cl)c5Cl)c4n3)c3ccccc23)CC1 |  | IC50 ([1]; read-out: Kinase IC50 (nM) CRAF, Table 5): 10 to 50 nM; HCT116 pERK Ymin % ([2]; lowest value of the curve, HCT116, Table 5): −3%; IC50 ([2]; HCT116 cells, Table 5): < 500 nM; IC50 ([3]; read-out: Kinase IC50 (nM) BRAF, Table 5): 1 to 10 nM |
|  |  |  | < 10 | −11 | < 500 | < 1 | O=S(=O)(Nc1ccc(F)c(Nc2ncnc3ccc(-n4cnc5c(N6CCO[C@@H](CO)C6)cccc54)nc23)c1F)c1cccc(Cl)c1Cl |  |  |
| 10 to 50 | < 500 | < 1 |  |  |  |  | Cc1c(Cl)cccc1S(=O)(=O)Nc1ccc(F)c(Nc2ncnc3ccc(-n4nc(C(=O)N5CCC[C@H](O)C5)c5ccccc54)nc23)c1F | 6.6 |  |
|  |  |  | < 10 | −10 | < 500 | < 1 | O=S(=O)(Nc1ccc(F)c(Nc2ncnc3ccc(-n4cnc5c(N6CCCC[C@H]6CO)cccc54)nc23)c1F)c1cccc(Cl)c1Cl |  |  |
|  |  |  | 10 to 50 | −7 | 1000 to 10000 | 1 to 10 | COC1(C)CCN(c2cccc3c2nnn3-c2ccc3ncnc(Nc4c(F)ccc(NS(=O)(=O)c5cccc(Cl)c5Cl)c4F)c3n2)CC1 |  |  |
| > 50 | 1000 to 10000 | > 10 |  |  |  |  | COc1ccc(S(=O)(=O)Nc2ccc(F)c(Nc3ncnc4ccc(-n5c(C)nc6ccccc65)nc34)c2F)cc1 | 6 |  |
| 10 to 50 | < 500 | 1 to 10 |  |  |  |  | COCCCNC(=O)c1nn(-c2ccc3ncnc(Nc4c(F)ccc(NS(=O)(=O)c5cccc(F)c5C)c4F)c3n2)c2ccccc12 | −0.8 |  |
|  |  |  | > 50 | −15 | < 500 | > 10 | CC1(F)CN(c2cccc3c2ncn3-c2ccc3ncnc(Nc4c(F)ccc(NS(=O)(=O)c5cccc(Cl)c5Cl)c4F)c3n2)C1 |  |  |
|  |  |  |  |  |  |  | Cc1c(Cl)cccc1S(=O)(=O)Nc1ccc(F)c(Nc2ncnc3ccc(-n4nc(C(=O)N5CCNC[C@@H]5C)c5ccccc54)nc23)c1F |  | IC50 [1, 7]: > 50 nM; HCT116 pERK Ymin % [2, 8]: −0.2%; IC50 [2, 9]: < 500 nM; IC50 [3, 10]: < 1 nM |
|  |  |  | 10 to 50 | −5 | 1000 to 10000 | 1 to 10 | O=S(=O)(Nc1ccc(F)c(Nc2ncnc3ccc(-n4cc(CO)nn4)nc23)c1F)c1cccc(Cl)c1Cl |  |  |

| SMILES | IC50 [1, 4] [nM] | IC50 [2, 5] [nM] | IC50 [3, 6] [nM] | IC50 [1, 11] [nM] | HCT116 pERK % Ymin (lowest value of the IC50 curve) ([2]; HCT116 cells) [%] | IC50 ([2]; HCT116 cells) [nM] | IC50 [3, 12] [nM] | HCT116 pERK Ymin % ([2]; HCT116 cells, Ymin in brackets) [%] | further results |
| --- | --- | --- | --- | --- | --- | --- | --- | --- | --- |
| CN(C)C(=O)Nc1cccc2c1ncn2-c1ccc2ncnc(Nc3c(F)ccc(NS(=O)(=O)c4ccccc4Cl)c3F)c2n1 | 10 to 50 | 500 to 1000 | 1 to 10 |  |  |  |  | 12 |  |
| Cc1c(Cl)cccc1S(=O)(=O)Nc1ccc(F)c(Nc2ncnc3ccc(-n4cc(C(=O)N5CCOCC5)c5c(N)cccc54)nc23)c1F | 10 to 50 | < 500 | < 1 |  |  |  |  | 3.3 |  |
